Values of other authors in paper PMC4269383.

Molecular target: Plexin-B1 RBD (Homo sapiens) (UniProt O43157)

## Rac1 (from UniProt P63000)
  Kd: 6 µM
